Calls of active or inactive are those of the source.
Key:
Format in all cases: functional, cell-based
THP-1 [1] = assay: Antiinflammatory activity in LPS-induced human THP-1 cells assessed as reduction in LPS-induced IL-6 mRNA expression at 10 uM preincubated for 1 hr followed by LPS stimulation and measured after 24 hrs by RT-qPCR analysis; conditions: time 25.0 hrs
THP-1 [2] = assay: Antiinflammatory activity in LPS-induced human THP-1 cells assessed as reduction in LPS-induced CCL2 mRNA expression at 10 uM preincubated for 1 hr followed by LPS stimulation and measured after 24 hrs by RT-qPCR analysis; conditions: time 25.0 hrs
THP-1 [3] = assay: Antiinflammatory activity in LPS-induced human THP-1 cells assessed as reduction in LPS-induced CCL2 mRNA expression at 10 uM preincubated for 1 hr followed by LPS stimulation and measured after 4 hrs by RT-qPCR analysis; conditions: time 5.0 hrs

Measured: Activity

CCOC(=O)CC/C(C)=C/CCc1ccc2cc(OCc3ccccc3)ccc2n1
active: THP-1 [1] | THP-1 [2] | THP-1 [3]

— ChEMBL document CHEMBL5576047, “Synthesis of a new 2-prenylated quinoline as potential drug for metabolic syndrome with pan-PPAR activity and anti-inflammatory effects” (Bioorg Med Chem Lett, 2024)
